We go through six proteins from ChEMBL document CHEMBL1250451, “Mechanistic insights into a Ca2+-dependent family of alpha-mannosidases in a human gut symbiont” (Nat Chem Biol, 2010).

Assay type in all cases: protein assay
Substrate in data set [1]: OC[C@H]1O[C@H](O[C@@H]2[C@H](O)[C@@H](O)O[C@H](CO)[C@H]2O)[C@@H](O)[C@@H](O)[C@@H]1O
Description: Ratio of Kcat to Km for Bacteroides thetaiotaomicron GH92 alpha-mannosidase GH92 alpha-mannosidase 3130 assessed as mannose release after 16 hrs by HPLC.

Substrate in data set [2]: OC[C@H]1O[C@H](O[C@@H]2[C@H](O)[C@@H](O)O[C@H](CO)[C@H]2O)[C@@H](O)[C@@H](O)[C@@H]1O
Nature of the data set: Ratio of Kcat to Km for Bacteroides thetaiotaomicron GH92 alpha-mannosidase GH92 alpha-mannosidase 3991 assessed as mannose release after 16 hrs by HPLC.

Substrate in data set [3]: OC[C@H]1O[C@H](O[C@@H]2[C@H](O)[C@@H](O)O[C@H](CO)[C@H]2O)[C@@H](O)[C@@H](O)[C@@H]1O
Nature of the data set: Activity of Bacteroides thetaiotaomicron GH92 alpha-mannosidase GH92 alpha-mannosidase 3991 assessed as mannose release after 16 hrs by HPLC.

Substrate in data set [4]: OC[C@H]1O[C@H](O[C@@H]2[C@H](O)[C@@H](O)O[C@H](CO)[C@H]2O)[C@@H](O)[C@@H](O)[C@@H]1O
Description: Ratio of Kcat to Km for Bacteroides thetaiotaomicron GH92 alpha-mannosidase GH92 alpha-mannosidase 1878 assessed as mannose release after 16 hrs by HPLC.

Substrate in data set [5]: OC[C@H]1O[C@H](O[C@@H]2[C@H](O)[C@@H](O)O[C@H](CO)[C@H]2O)[C@@H](O)[C@@H](O)[C@@H]1O
Nature of the data set: Activity of Bacteroides thetaiotaomicron GH92 alpha-mannosidase GH92 alpha-mannosidase 1878 assessed as mannose release after 16 hrs by HPLC.

Substrate in data set [6]: OC[C@H]1O[C@H](O[C@@H]2[C@H](O)[C@@H](O)O[C@H](CO)[C@H]2O)[C@@H](O)[C@@H](O)[C@@H]1O
Description: Activity of Bacteroides thetaiotaomicron GH92 alpha-mannosidase GH92 alpha-mannosidase 3858 assessed as mannose release after 16 hrs by HPLC.

Substrate in data set [7]: OC[C@H]1O[C@H](O[C@@H]2[C@H](O)[C@@H](O)O[C@H](CO)[C@H]2O)[C@@H](O)[C@@H](O)[C@@H]1O
Description: Ratio of Kcat to Km for Bacteroides thetaiotaomicron GH92 alpha-mannosidase GH92 alpha-mannosidase 3858 assessed as mannose release after 16 hrs by HPLC.

Substrate in data set [8]: OC[C@H]1O[C@H](O[C@@H]2[C@H](O)[C@@H](O)O[C@H](CO)[C@H]2O)[C@@H](O)[C@@H](O)[C@@H]1O
Description: Activity of Bacteroides thetaiotaomicron GH92 alpha-mannosidase GH92 alpha-mannosidase 3773 assessed as mannose release after 16 hrs by HPLC.

Substrate in data set [9]: OC[C@H]1O[C@H](O[C@@H]2[C@H](O)[C@@H](O)O[C@H](CO)[C@H]2O)[C@@H](O)[C@@H](O)[C@@H]1O
Description: Ratio of Kcat to Km for Bacteroides thetaiotaomicron GH92 alpha-mannosidase GH92 alpha-mannosidase 3773 assessed as mannose release after 16 hrs by HPLC.

Substrate in data set [10]: OC[C@H]1O[C@H](O[C@@H]2[C@H](O)[C@@H](O)O[C@H](CO)[C@H]2O)[C@@H](O)[C@@H](O)[C@@H]1O
Nature of the data set: Ratio of Kcat to Km for Bacteroides thetaiotaomicron GH92 alpha-mannosidase GH92 alpha-mannosidase 1769 assessed as mannose release after 16 hrs by HPLC.

Substrate in data set [11]: OC[C@H]1O[C@H](O[C@@H]2[C@H](O)[C@@H](O)O[C@H](CO)[C@H]2O)[C@@H](O)[C@@H](O)[C@@H]1O
Nature of the data set: Activity of Bacteroides thetaiotaomicron GH92 alpha-mannosidase GH92 alpha-mannosidase 1769 assessed as mannose release after 16 hrs by HPLC.

B1: Alpha-1,2-mannosidase, putative (BT_3130) (Bacteroides thetaiotaomicron), Q8A325 (protein)
chain: MKKLLLSVCAFSLTLATLQAGEITKYVNPFIGTGAIDGGLSGNNYPGATSPFGMIQLSPDTSEAPNWGDASGYDYNRNTIFGFSHTRLSGTGASDLIDITLMPTSSGRTSSAFTHDEEKARPGYYQVMLKDENINAELTTTQRNGIHRYQYPAGKDAEIILDMDHSADKGSWGRRIINSQIRILNDHAVEGYRIITGWAKLRKIYFYMEFSSPILTSTLRDGGRVHENTAVINGTNLHGCFRFGQLNGKPLTCKVALSSVSMENARQNMEQEAPHWDFDRYVAAADADWEKQLGKIEVKGTEVQKEIFYTALYHTMIQPNTMSDVNGEYMAADYTTRKVANNETHYTTFSLWDTFRASHPLYTLLEPERVTDFVKSMIRQYEYYGYLPIWQLWGQDNYCMIGNHSIPVITDAILKGIPGIDMEKAYEAVYNSSVTSHPNSPFEVWEKYGFMPENIQTQSVSITLEQAFDDWCVAQLAAKLNKDADYQRFHKRSEYYRNLFHPKTKFFQSKNDKGEWIEPFDPYQYGGNGGHPFTEGNAWQYFWYVPHNIQALMELTGGTKAFEQKLDTFFTSTYKSEQMNHNASGFVGQYAHGNEPSHHVAYLYNFAGQPWKTQKYVSHILNTLYNNTSSGYAGNDDCGQMSAWYVFSAMGFYPVNPADGRYIIGSPLLDECTLKLAGNKEFRIRTIRKSPEDIYIQSVTLNGKKHKDFFITHQDIMNGGTMVFKMGKKPSGWGK
Consider B1, for which, in data set [1], the kcat/Km (as a rule, the turnover number divided by the Michaelis constant) was determined as 3.33 M⁻¹ s⁻¹.

B2: Alpha-1,2-mannosidase (BT_3991) (Bacteroides thetaiotaomicron), Q8A0N0 (protein)
chain: MKLKTLLIGCFGGFIMLNSCTESPSVKDYSAYVNPFIGTGGHGHTFPGAVVPHGMIQPSPDTRIDGWDACSGYYYDDNTINGFSHTHVSGTGCCDYGDVLLMPTVGKPQYLTTDPESQKLAYASAFSHENETAEPGYYSVFLDTYQVKAEITATKRGAIHRYTFPESTESGFIIDLDYSLQRQTNYEMEIEVISDTEICGHKKTTYWAFDQYINFYAKFSKPFAYTLITDSVTMDNGKRLPVCKAVLHFNTKKDEEVLVKVGVSAVDIAGARKNVESEIPEWDFDKVRKDARTAWNNYLSKIDITTSDKEDKTIFYTALYHTAISPNLFTDADGRYLGMDLEVHQGDTINPLYTVFSLWDTFRALHPLMTIIDPNLNNQFINSLIRKHQEGGIYPMWDLASNYTGTMIGYHAVPVIVDAYMKGYRNFDAHEAYKASLRAAEYDTTGIKCPDLVLPHLMPKAKYYKNAIGYIPCDRENESVAKALEYAYDDWCISIFAEAMNDFENKAKYERFAKAYEFYFDKSTRFMRGLDSNGEWRTPFNPRASTHRSDDYCEGTAWQWTWFVPHDVEGLVKLMGGEDAFVEKLDSLFTVDSSLDGETTSADISGLIGQYAHGNEPSHHVIHLYNYVNRPWRTQELVDSVYRSQYANNVDGLSGNEDCGQMSAWYILNSMGFYQVCPGKPVYSIGRPAFDKAVINLPGEKTFSIVAKNNSKSNKYIESVLLNGKPLDTPFFGHQDIVAGGVMEIRMTDHPTQWGVRQ
For B2, in data set [2], the specificity constant (kcat/Km) was 517 M⁻¹ s⁻¹. In addition, in [3], the Km (commonly the concentration of substrate that gives half-maximal velocity) is 9000 µM; the turnover number (kcat) (commonly the number of substrate molecules converted per active site and unit of time at saturation) came out at 4.67 s⁻¹.

B3: Alpha-1,2-mannosidase (BT_1878) (Bacteroides thetaiotaomicron), Q8A6K3 (protein)
chain: MIIMKRKSPVMAVALAGLFMYTSCSPTEQAETKDYTQYVNTFIGAADNGHTFPGACYPFGMIQTSPVTGAVGWRYCSEYTYQDSLIWGFTQTHLNGTGCMDLGDILVMPVTGTRARAWDAYRSHFPKDKEAATPGYYTVELSDPQVKAELTASIHAALHRYTYHKADSASLLIDLQHGPAWREEQYHSQVNSCEVNWEDAQTLAGHVNNTVWVDQDYFFVMKFNRPVIDSLYLPMGETEKGKRIIATFDLKPGDELMMKVALSTTSVEGAKKNLQAEIPDWNFDGVKLAAHDEWNSYLSRMDVEGTDDEKTNFYTCFYHALIQPNQISDVDGMYRNAADSIVKAGTGTFYSTFSLWDTYRAAHPFYTLMVPERVDDFVNSLIEQGEVQGFLPIWALWGKENFCMIGNHGVSVIAEAYRKGFRGFDAERAFNMVKKTQTVSHPLKSDWEVYTKYGYFPTDLTKAESVSSTLESVYDDYAAADMARRMGKEEDAAYFAKRADYYKNLFDSQTNFMRPRKADGTWKSPFNPSDVGHAESTGGDYTEGNAWQYTWHVQHDVPGLIALFGGEEPFLNKLDSLFTVKLETTQADVTGLIGQYAHGNEPSHHVTYLYALAGRPERTQELIREIFDTQYKNKPDGLCGNDDCGQMSAWYMFSAMGFYPVDPVSGDYVFGAPQLPKIVLHLADGKTFTVIAENLSKEHKYVDSITLNGEPYTKNTISHEDILKGGTLVYKMK
In the case of B3, the kcat/Km in [4] stood at 140 M⁻¹ s⁻¹. Further, in [5], the Km stood at 2000 µM and the kcat was 0.283 s⁻¹.

B4: Alpha-1,2-mannosidase (BT_3858) (Bacteroides thetaiotaomicron), Q8A113 (protein)
chain: MMMNRLNIKRTVGSCLMAMAFFSCTHTDQTPTKDFVDYVNPYIGNISHLLVPTYPTVHLPNSMLRVYPERGDYTSDRVNGLPVVVTSHRGSSAFNLSPVQGEVSRPIVSYSYDLENITPYSYSVYLDEADIQVEYAPSHQAGIYHISFGTEGDNALVVNTKNGKLVAEEKGVSGYQVIDNTPTKIYLYLETSQLPLRKGVLADGKVDMESKEGSAIALYYGSEKNLNLRYGISFISAEQAKKNLQRDITTYDVKAVADAGRRIWNKTLGKIVIEGGSEDEKEIFYTSLYRTYERMINLSEDGKYYSAFDGKIHEDGGVPFYTDDWIWDTYRATHPLRILIEPQKELDMIRSYIRMAEQSDRRWMPTFPEVTGDSHRMNGNHAVAVIWDAYCKGLKDFDLEAAYEACKGAITEKTLLPWLRCPLTELDKFYQEKGFFPALNPGEEETCKAVHSFERRQAVAVMLGNCYDNWCLAQIARTLNKTDDYKKFMRMSYTYRNVYNAETGFFHPKNKDGKFIEPFDYRYSGGQGARGYYGENNGWIYRWDVQHNPADLIALMGGQASFIERLNQTFNEPLGRSKFDFYHQLPDHTGNVGQFSMANEPCLHIPYLYNYAGQPWMTQKRIRVLLNQWFRNDLMGVPGDEDGGGMTAFVVFSMMGFYPVTPGSPTYNIGSPVFQSAKMEVGDGHYFEIIAENYAPDHKYIQSATLNGTPWNKPWFSHADIQNGGRLVLQMGDKPNKKWGIASDAVPPSSESLPE
B4: in [6], the Km came out at 1400 µM and the kcat was 40 s⁻¹. For the same protein, the kcat/Km in data set [7] came out at 28300 M⁻¹ s⁻¹.

B5: Alpha-1,2-mannosidase, putative (BT_3773) (Bacteroides thetaiotaomicron), Q8A193 (protein)
chain: MNAFKLLMAASCFLGLATSGVAKQDYSKSEGLLQYVDPYIGSGFHGHVFVGTSVPYGMVQLGPNNIHKGWDWCSGYHYSDSILIGFSHTHLSGTGCTDLGDILIMPLNEIRTPRGNQDDIRDGYASKYSHDNEIARPEYYSLILDRYNIKAELTATDRVGFHRYTYPEGKPVSILIDLREGNGSNAYDSYIRKVDDYTVEGYRYVRGWSPSRKVYFVLKSDQKIEKFTAYDDNTPKLWDQLKVESVKSVLTFGNVKEVKIKVAISSVSCDNAAMNLQAELSHWDFDKVVKMSSDRWNKQLDKMTVESDDEAAKRVFYTAHYHTMIAPTLYCDVNGEYRGMNDMIYTDPKKANYTTLSLWDTYRALNPLMTIIQPEMVDNVINSMLSIYRQQDKLPIWPLMSGETNCMPGYSSVPVIADAYLKGFTGFDAEEALTAMKATATYEGQNGVPYVMAKGYIPADKIHEATSIAMEYAVDDWGIAAMAQKMGKTADYETFSKRAHYYKNYFDSSIHFIRPKLEDGSWRTPYDPARSIHGVGDFCEGNGWQYTFFAPQDPYGLISLFGGDKPFTSKLDSFFTNNDSMGEGASSDITGLIGQYAHGNEPSHHIAYLYTYAGEQWKTAEKVRFIMSDFYTDQPDGIIGNEDCGQMSAWYLLSAMGFYQVNPSDGVFAFGSPRFKKIEVKVRGGKVFTVEAPNNSKDNIYIQKVYLNGKPYHKSYITYDDIINGSTLKFEMGKKPAKNFGKASANRPIVLNK
As to B5, in [8], the Km came out at 2500 µM and the kcat stood at 0.0183 s⁻¹. The catalytic efficiency (kcat/Km) in data set [9] was determined as 7.5 M⁻¹ s⁻¹.

B6: Alpha-1,2-mannosidase (BT_1769) (Bacteroides thetaiotaomicron), Q8A6V7 (protein)
chain: MKLTHILASAAIISTLSACNGSLQTADRTPVDYVNPYIGNISHLLVPTFPTIQLPNSMLRVYPERADYTSELLKGLPLIVTNHRERSAFNFSPYQGEKLRPVITYNYDNEHITPYSFDVELDDNRMKAEYALSHQSAIYRITYEADKPAYLIVNSRNGSIHANENFISGRQQLNDNTNVYVYIEAQEKPISAGILENGTIETSKDNAEGANACAAWRFADGTTTVNLRYGISFISEEQAEKNLHRELKDYNIKALAEAGRQIWNETLGRIQVEGGTEDDKTVFYSSFYRTFERPICMSEGGRYFSAFDGKVHEDNGTPFYTDDWIWDTYRAAHPLRTLIDQQKEEDIIASYLRMAEQMGNMWMPTFPEVTGDTRRMNSNHAVATVADALAKGLKVDTAKAYEACRKGIEEKTLAPWSGAPAGWLDNFYRENGYIPALRVDEPENDPNVHPFEKRQPVAVTLGTSYDQWCLSRIAQALNKKEEAEYYLKCSYNYRNLYNKETAFFHPKDKEGQWIEPFDYRFPGGMGAREYYGENNGWVYRWDVPHNVADLISLMGGNEQFIANLDRTFTEPLGRSKYAFYAKLPDHTGNVGQFSMANEPSLHVPYLYNYAGQPWKTQKRIRQMLKTWFRNDLMGIPGDEDGGGMTSFVVFSSLGFYPVTPGLPAYTIGSPLFTDAKIRLSNGAVFEIEAKNASTDNKYIQSATLNGKEWNKSWFSHDDLMSGGKLVLVMGNKPNKTWASGAEDVPPSLEIK
Consider B6, for which the kcat/Km in data set [10] came out at 48300 M⁻¹ s⁻¹. In data set [11], the Km was determined as 1300 µM and the catalytic constant (kcat) came to 63.3 s⁻¹.
